From PubChem BioAssay AID2101 (National Center for Advancing Translational Sciences (NCATS), 2009)
“And” between values parts separate entries of the source, which are not always exact repeats. Equal entries are not always repeated. The entries are a selection whose mix differs from that of the whole data set. Inconclusive results are not listed. The source made the active and inactive calls. The call rests on the fitted dose curve; in most records, active means well fitted inhibition curve with a large enough effect; inconclusive means small, poorly fitted or top-dose-only effect, or effect the other way, or another doubt; inactive means no such curve, though single readings can be large or run the other way.

Target: Lysosomal acid glucosylceramidase (Homo sapiens) (UniProt P04062)
Assay: qHTS Assay for Inhibitors and Activators of N370S glucocerebrosidase as a Potential Chaperone Treatment of Gaucher Disease;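 further: 0% = full enzyme activity and -100% = no enzyme basal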
Settings: N370S GC spleen homogenate, 4MU-glucoside fluorescence; at 59.4 µM (top of the series)
Excerpt: NIH Chemical Genomics Center [NCGC]
NIH Molecular Libraries Probe Production Centers Network [MLPCN]
Assay Submitter (PI): Wei Zheng
Glucocerebrosidase (GC) catalyzes the hydrolysis of beta-glucocerebroside to glucose and ceramide in lysosomes. Mutations in the glucocerebrosidase gene result in Gaucher disease, an autosomal recessive lysosomal storage disorder. Many of the mutations encountered in patients with Gaucher disease are missense alterations that may cause misfolding, decreased stability and/or mistrafficking of this lysosomal protein. […] These inhibitors include iminosugar analogs and three non-iminosugar inhibitors identified from a previous HTS of 62,000 compounds with the wild type recombinant enzyme. […]
This is a fluorogenic enzyme assay with 4-methylumbelliferyl-beta-D-glucopyranoside as the substrate and N370S glucocerebrosidase from human spleen homogenate as the enzyme preparation. Upon the hydrolysis of this fluorogenic substrate, the resulting product, […] which can be detected by a standard fluorescence plate reader. […] The AC50 values were determined from concentration-response data modeled with the standard Hill equation. […]
(6) Detect the assay plate in a ViewLux plate reader (PerkinElmer) with Ex=365 nm and Em=440nm. […]

Row | SMILES | activity change, negative = inhibition
1 | O=[N+]([O-])C(Cl)(Cl)Cl | inactive: 4.9%
2 | CN(CCCl)CCCl | inactive: -4.05% and inactive: 8%
